The assay relates to TDP-43. The assay is described as follows: Proteolytic processing of TDP-43 and caspase-3, Western blot of HeLa and H4 cells. It is filed as cell-based. The settings on record: 0.2 μM, 3 hours.

Take `CN[C@@H]1C[C@H]2O[C@@](C)([C@@H]1OC)n1c3ccccc3c3c4c(c5c6ccccc6n2c5c31)C(=O)NC4` [staurosporine]: the caspase-3 activity entry is on record as “concomitant increase” and the “cleavage of TDP-43” value was “increased cleavage”.

Values taken from patent US20100136573A1, “DIAGNOSING NEURODEGENERATIVE DISEASES” (priority 2007, published 2010).
